{"sequences": {"note": "Amino acid sequences for entries named in this document (tags omitted). Residues count along the entry.", "UniProt Q96RI1, 1-476 isoform 1": "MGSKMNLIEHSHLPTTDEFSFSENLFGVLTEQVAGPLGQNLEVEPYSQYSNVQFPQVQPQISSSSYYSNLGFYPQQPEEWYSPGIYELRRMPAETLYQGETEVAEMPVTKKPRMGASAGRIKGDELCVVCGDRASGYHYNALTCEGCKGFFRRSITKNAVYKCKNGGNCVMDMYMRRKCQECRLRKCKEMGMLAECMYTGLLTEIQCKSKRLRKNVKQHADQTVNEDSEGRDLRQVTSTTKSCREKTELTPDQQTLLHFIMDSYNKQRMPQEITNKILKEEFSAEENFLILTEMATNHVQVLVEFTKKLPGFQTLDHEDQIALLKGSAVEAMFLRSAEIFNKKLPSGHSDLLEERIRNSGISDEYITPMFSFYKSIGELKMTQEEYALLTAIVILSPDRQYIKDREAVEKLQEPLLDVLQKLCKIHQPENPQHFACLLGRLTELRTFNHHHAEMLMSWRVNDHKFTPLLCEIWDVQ", "UniProt P19793, whole entry partner": "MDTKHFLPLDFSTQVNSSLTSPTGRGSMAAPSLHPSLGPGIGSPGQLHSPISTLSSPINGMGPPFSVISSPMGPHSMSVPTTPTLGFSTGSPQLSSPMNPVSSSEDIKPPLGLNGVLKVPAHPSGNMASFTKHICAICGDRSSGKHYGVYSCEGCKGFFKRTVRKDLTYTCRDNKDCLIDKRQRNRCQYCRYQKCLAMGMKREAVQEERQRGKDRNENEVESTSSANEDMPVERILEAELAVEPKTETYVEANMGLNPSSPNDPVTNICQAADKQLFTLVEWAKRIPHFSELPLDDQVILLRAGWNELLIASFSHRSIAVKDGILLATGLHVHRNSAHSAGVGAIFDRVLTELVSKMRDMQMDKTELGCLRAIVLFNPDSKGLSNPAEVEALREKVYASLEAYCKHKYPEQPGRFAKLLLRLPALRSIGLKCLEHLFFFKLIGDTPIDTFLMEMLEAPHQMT"}, "source": "patent US20190084939A1", "about": "“ANALOGS OF FEXARAMINE AND METHODS OF MAKING AND USING” (Salk Institute for Biological Studies, priority 2014, published 2019)", "biological_target": "Human FXR full length (Homo sapiens, UniProt Q96RI1)", "test": "FXR activity screen, luciferase reporter in transfected CV-1 cells", "note": "Like-named read-outs stand apart in the source and are kept apart here.", "data": [{"compound": "[2H]C(c1ccc(-c2ccc(N(C)C)cc2)cc1)N(C(=O)[C@@H]1C[C@@H]2CC[C@H]1C2)c1cc(F)cc(/C=C/C(=O)OC)c1", "note": "(stereo partly drawn)", "values": [{"measurement": "EC50", "setting": "read-out: 1st RND EC50, first round, CV-1 cells, 24 hours", "value": 66.8, "unit": "nM"}, {"measurement": "EC50", "setting": "read-out: 2nd RND EC50, second round, CV-1 cells, 24 hours", "value": 58.5, "unit": "nM"}, {"measurement": "EC50", "setting": "read-out: EC50 (retested), retest", "value": 83, "unit": "nM"}]}]}
